This is an account of results in publication PMC10482975 (Nature Communications, 2023).

Sequences of proteins named here, by UniProt entry; tags and fusion partners are left off.
UniProt P08172, whole entry: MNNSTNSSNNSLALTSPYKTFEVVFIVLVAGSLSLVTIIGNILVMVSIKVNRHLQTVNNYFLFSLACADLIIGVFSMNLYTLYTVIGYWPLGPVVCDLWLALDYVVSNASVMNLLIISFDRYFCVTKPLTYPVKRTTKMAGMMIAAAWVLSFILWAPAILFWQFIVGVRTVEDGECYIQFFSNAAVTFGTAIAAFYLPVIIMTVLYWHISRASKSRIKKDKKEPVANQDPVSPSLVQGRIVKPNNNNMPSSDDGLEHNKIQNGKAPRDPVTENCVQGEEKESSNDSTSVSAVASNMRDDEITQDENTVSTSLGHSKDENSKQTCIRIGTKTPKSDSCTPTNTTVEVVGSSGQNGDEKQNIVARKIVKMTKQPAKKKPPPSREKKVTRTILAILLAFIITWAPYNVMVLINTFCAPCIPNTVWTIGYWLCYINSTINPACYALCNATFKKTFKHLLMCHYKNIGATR

Molecules are shown by their SMILES.

The experiment deals with M2 mAChR WT (Homo sapiens, UniProt P08172). Put plainly: [3H]-NMS radioligand dissociation binding, M2 mAChR WT.

In the case of `CCCCCCOc1nsnc1C1=CCCN(C)C1` [xanomeline], the IC50 was 26.3 µM.

The IC50 is the midpoint of a concentration-inhibition curve.
